For the assay, the target named is Cyclin-A2/Cyclin-dependent kinase 2 (Homo sapiens, UniProt P24941).

One may read the IC50 as the midpoint of a concentration-inhibition curve. High values mean weaker potency, low ones greater potency. Consider `CNS(=O)(=O)c1ccc(N=CC2C(=O)Nc3ccccc32)cc1` (stereo unspecified) [N-Methyl-4-{[(2-oxo-1,2-dihydro-3H-indol-3-ylidene)-methyl]amino}benzenesulfonamide], for which inhibition was half-maximal at 560 nM (IC50).

(Values after BindingDB's records for doi:10.1021/jm010117d (Glaxosmithkline, 2001).)
